# Test results from ChEMBL document CHEMBL2150997, “Profiling of a prescription drug library for potential renal drug-drug interactions mediated by the organic cation transporter 2” (J Med Chem, 2011).
# Target: T1, Multidrug and toxin extrusion protein 2 (Homo sapiens, UniProt Q86VL8)
# T1 sequence (Q86VL8 whole entry): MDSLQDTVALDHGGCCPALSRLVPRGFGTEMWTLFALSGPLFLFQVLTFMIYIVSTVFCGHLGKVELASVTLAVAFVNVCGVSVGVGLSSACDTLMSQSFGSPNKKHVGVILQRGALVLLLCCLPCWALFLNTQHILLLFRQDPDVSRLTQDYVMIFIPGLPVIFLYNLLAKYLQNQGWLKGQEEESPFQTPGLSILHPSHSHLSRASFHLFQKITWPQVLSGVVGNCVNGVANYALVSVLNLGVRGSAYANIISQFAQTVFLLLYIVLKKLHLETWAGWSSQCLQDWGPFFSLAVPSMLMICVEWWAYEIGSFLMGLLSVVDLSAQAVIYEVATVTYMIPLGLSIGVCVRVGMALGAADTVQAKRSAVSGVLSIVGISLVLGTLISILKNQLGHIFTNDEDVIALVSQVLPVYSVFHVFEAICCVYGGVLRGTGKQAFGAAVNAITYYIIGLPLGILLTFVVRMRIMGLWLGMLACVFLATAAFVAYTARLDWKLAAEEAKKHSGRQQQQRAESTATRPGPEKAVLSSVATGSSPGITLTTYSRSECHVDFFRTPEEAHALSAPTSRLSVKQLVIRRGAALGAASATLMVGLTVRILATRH
smiles,measurement,value
Cc1nccn1CC1CCc2c(c3ccccc3n2C)C1=O (stereo unspecified) [ONDANSETRON],IC50,6.9 µM
